Data reported in patent publication US20070191431A1, “2-Amino-5-piperidinylimidazolone compounds and use thereof for beta-secretase modulation” (Wyeth, priority 2005, published 2007).

Chains of the proteins cited; added tags and fusions are not shown. Residues count along the entry.
UniProt P56817, 46-501 limits assumed: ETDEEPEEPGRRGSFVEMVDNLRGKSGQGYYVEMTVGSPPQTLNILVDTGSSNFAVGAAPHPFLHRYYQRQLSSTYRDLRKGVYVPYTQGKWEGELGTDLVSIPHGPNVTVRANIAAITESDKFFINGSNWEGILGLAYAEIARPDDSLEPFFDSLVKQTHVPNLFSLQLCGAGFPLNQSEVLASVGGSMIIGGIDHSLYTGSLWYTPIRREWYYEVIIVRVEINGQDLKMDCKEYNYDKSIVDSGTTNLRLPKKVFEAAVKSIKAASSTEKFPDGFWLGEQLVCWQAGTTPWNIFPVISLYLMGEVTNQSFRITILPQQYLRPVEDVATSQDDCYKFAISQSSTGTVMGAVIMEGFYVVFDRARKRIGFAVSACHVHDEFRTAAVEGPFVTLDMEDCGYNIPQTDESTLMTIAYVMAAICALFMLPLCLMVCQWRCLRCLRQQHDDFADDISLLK

Target: human BACE1 (Homo sapiens, UniProt P56817)
Assay: BACE-1 fluorescent kinetic assay (Example 88)
Settings: read-out: BACE1 (IC50 μM); 10 nM enzyme, 25 μM substrate WABC-6, Na-Acetate pH 4.5, room temperature

IC50 [µM]	Structure (SMILES)
0.01 to 1	COCC(=O)Nc1cccc(C2(C3CCN(C(=O)C4CCCCC4)CC3)N=C(N)N(C)C2=O)c1 (stereo not drawn)
0.01 to 1	COCC(=O)Nc1cccc(C2(C3CCN(C(=O)CCC4CCCCC4)CC3)N=C(N)N(C)C2=O)c1 (stereo not drawn)
1.01 to 3	COCC(=O)Nc1cccc(C2(C3CCN(C(=O)c4cncc(Br)c4)CC3)N=C(N)N(C)C2=O)c1 (stereo not drawn)
